Results reported in patent US20260200947A1, “FUSED CYCLIC COMPOUNDS AND USE THEREOF” (Jacobio Pharmaceuticals Co., Ltd., priority 2022, published 2026).
pIC50: −log10 of the molar value. Where two headings read alike, the source gives them in different places.

The chains behind the UniProt entries cited, without tags or fusion partners. Residues count along the entry.
UniProt P01116, 1-169 isoform 2 G12D limits assumed: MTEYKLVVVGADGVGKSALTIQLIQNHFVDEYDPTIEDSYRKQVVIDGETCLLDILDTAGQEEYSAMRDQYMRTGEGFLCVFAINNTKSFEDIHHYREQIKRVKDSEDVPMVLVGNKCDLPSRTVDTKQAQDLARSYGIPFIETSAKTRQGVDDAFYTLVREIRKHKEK
UniProt P01116, 1-169 isoform 2 G12V limits assumed: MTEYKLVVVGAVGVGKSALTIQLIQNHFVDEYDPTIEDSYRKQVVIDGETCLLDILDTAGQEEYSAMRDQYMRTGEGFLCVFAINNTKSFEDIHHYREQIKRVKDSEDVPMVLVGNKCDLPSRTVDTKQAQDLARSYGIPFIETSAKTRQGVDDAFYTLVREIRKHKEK

What was measured:
GppNp-KRAS G12D = GppNp-KRAS G12D (Homo sapiens, UniProt P01116, G12D); experiment: GTP-K-Ras and cRAF interaction assay, GppNp-KRAS G12D; conditions: read-out: Biochemical assays, IC50, KRAS G12D GppNp, GppNp-loaded K-Ras G12D, cRAF RBD interaction, HTRF
GDP-KRAS G12D = GDP-KRAS G12D (Homo sapiens, UniProt P01116, G12D); experiment: SOS1 catalyzed nucleotide exchange assay, GDP-KRAS G12D
GDP-KRAS G12V = GDP-KRAS G12V (Homo sapiens, UniProt P01116, G12V); experiment: SOS1 catalyzed nucleotide exchange assay, GDP-KRAS G12V
GppNp-KRAS G12V = GppNp-KRAS G12V (Homo sapiens, UniProt P01116, G12V); experiment: GTP-K-Ras and cRAF interaction assay, GppNp-KRAS G12V; conditions: read-out: Biochemical assays, IC50, KRAS G12V GppNp, GppNp-loaded K-Ras G12V, cRAF RBD interaction, HTRF
SW620 cells (K-Ras G12V) = experiment: Phospho-ERK1/2(THR202/TYR204) HTRF assay, SW620
[1] = read-out: Biochemical assays, IC50, KRAS G12D GDP, GDP form K-Ras G12D, TR-FRET
[2] = read-out: Biochemical assays, IC50, KRAS G12V GDP, GDP form K-Ras G12V, TR-FRET
[3] = tested form: trifluoroacetate (TFA salt)
[4] = read-out: pERK, IC50, SW620, 2 hours incubation

`C#Cc1c(F)ccc2cc(N)cc(-c3nc4c5c(nc(OC[C@@]67CCCN6C[C@H](F)C7)nc5c3F)N3CCCC[C@](C)(F)[C@H]3N4C)c12` gave a pIC50 (GppNp-KRAS G12D) of 6.23, a pIC50 (GDP-KRAS G12D; [1]) of 7.95 and a pIC50 (GDP-KRAS G12V; [2]) of 7.67. For the same molecule, the pIC50 (GppNp-KRAS G12V) was < 6.00.
`C#Cc1c(F)ccc2cc(N)cc(-c3nc4c5c(nc(OCC67CCCN6CC(=CF)C7)nc5c3F)N3CCCOC[C@H]3CO4)c12` (single isomer, unassigned) [Compound 5B] showed a pIC50 (GppNp-KRAS G12D; [3]) of 7.09, a pIC50 (GDP-KRAS G12D; read-out: Biochemical assays, IC50, KRAS G12D GDP, GDP form K-Ras G12D, TR-FRET, tested form: trifluoroacetate (TFA salt)) of 8.79 and a pIC50 (GDP-KRAS G12V; read-out: Biochemical assays, IC50, KRAS G12V GDP, GDP form K-Ras G12V, TR-FRET, tested form: trifluoroacetate (TFA salt)) of 9.07. For the same molecule, the pIC50 (GppNp-KRAS G12V; [3]) was 6.79.
`C#Cc1c(F)ccc2cc(N)cc(-c3nc4c5c(nc(OCC67CCCN6CC(F)C7)nc5c3F)N3C(C(C)C)CCOCC3N4C)c12` (centres unmarked) was tested, and the pIC50 (GppNp-KRAS G12D) was < 6.00, the pIC50 (GDP-KRAS G12D; [1]) was 7.46 and the pIC50 (GDP-KRAS G12V; [2]) was 7.84. For the same molecule, the pIC50 (GppNp-KRAS G12V) was < 6.00.
`C#Cc1c(F)ccc2cc(N)cc(-c3nc4c5c(nc(OC[C@@]67CCCN6C[C@H](F)C7)nc5c3F)N3CCCC=C[C@@H]3N4C)c12` was tested, and the pIC50 (GppNp-KRAS G12D) was < 6.00, the pIC50 (GDP-KRAS G12D; [1]) was 6.98 and the pIC50 (GDP-KRAS G12V; [2]) was 6.97. The pIC50 (GppNp-KRAS G12V) was < 6.00.
`C#Cc1c(F)ccc2cc(N)cc(-c3nc4c5c(nc(OC[C@@]67CCCN6C[C@H](F)C7)nc5c3F)N3CC(F)COCC3N4C)c12` (single isomer, unassigned) [Compound 39A] showed a pIC50 (GppNp-KRAS G12D) of 7.34, a pIC50 (GDP-KRAS G12D; [1]) of 9.00 and a pIC50 (GDP-KRAS G12V; [2]) of 9.18. It also gave a pIC50 (SW620 cells (K-Ras G12V); [4]) of 8.71 and a pIC50 (GppNp-KRAS G12V) of 6.85.
For `C#Cc1c(F)ccc2cc(N)cc(-c3nc4c5c(nc(OC[C@@]67CCCN6C[C@H](F)C7)nc5c3F)N3CC(F)COCC3N4C)c12` (single isomer, unassigned) [Compound 39B], the pIC50 (GppNp-KRAS G12D) was 6.72, the pIC50 (GDP-KRAS G12D; [1]) was 8.74 and the pIC50 (GDP-KRAS G12V; [2]) was 8.91. The pIC50 (SW620 cells (K-Ras G12V); [4]) was 8.30 and the pIC50 (GppNp-KRAS G12V) was 6.65.
`C#Cc1c(F)ccc2cc(N)cc(-c3nc4c5c(nc(OC[C@@]67CCCN6C[C@H](F)C7)nc5c3F)N3C[C@@H](OC)COC[C@H]3N4C)c12` gave a pIC50 (GppNp-KRAS G12D) of 6.47, a pIC50 (GDP-KRAS G12D; [1]) of 8.51 and a pIC50 (GDP-KRAS G12V; [2]) of 8.77. The pIC50 (GppNp-KRAS G12V) was < 6.00.
For `C#Cc1c(F)ccc2cc(N)cc(-c3nc4c5c(nc(OC[C@@]67CCCN6C[C@H](F)C7)nc5c3F)N3CCCOCC3N4CC)c12` (some centres unmarked), the pIC50 (GppNp-KRAS G12D; tested form: TFA) was 6.52, the pIC50 (GDP-KRAS G12D; read-out: Biochemical assays, IC50, KRAS G12D GDP, GDP form K-Ras G12D, TR-FRET, tested form: TFA) was 8.45 and the pIC50 (GDP-KRAS G12V; read-out: Biochemical assays, IC50, KRAS G12V GDP, GDP form K-Ras G12V, TR-FRET, tested form: TFA) was 8.50. It also gave a pIC50 (SW620 cells (K-Ras G12V); read-out: pERK, IC50, SW620, 2 hours incubation, tested form: TFA) of 8.25 and a pIC50 (GppNp-KRAS G12V; tested form: TFA) of 6.58.
`C#Cc1c(F)ccc2cc(N)cc(-c3nc4c5c(nc(OC[C@@]67CCCN6C[C@H](F)C7)nc5c3F)N3CCCC=C[C@H]3N4C)c12` showed a pIC50 (GppNp-KRAS G12D) of 6.94, a pIC50 (GDP-KRAS G12D; [1]) of 8.69 and a pIC50 (GDP-KRAS G12V; [2]) of 8.74. It also gave a pIC50 (SW620 cells (K-Ras G12V); [4]) of 8.19 and a pIC50 (GppNp-KRAS G12V) of 6.37.
`C#Cc1c(F)ccc2cc(N)cc(-c3nc4c5c(nc(OCC67CCCN6CC(F)C7)nc5c3F)N3CC(C)(O)COCC3N4C)c12` (single isomer, unassigned) [Compound 156C] showed a pIC50 (GppNp-KRAS G12D) of 7.49, a pIC50 (GDP-KRAS G12D; [1]) of 8.74 and a pIC50 (GDP-KRAS G12V; [2]) of 8.67. The pIC50 (GppNp-KRAS G12V) was 6.47.
Work on `C#Cc1c(F)ccc2cc(N)cc(-c3nc4c5c(nc(OC[C@@]67CCCN6C[C@H](F)C7)nc5c3F)N3CCCOCC3N4C)c12` (single isomer, unassigned) yielded a pIC50 (GppNp-KRAS G12D) of 7.35, a pIC50 (GDP-KRAS G12D; [1]) of 9.12 and a pIC50 (GDP-KRAS G12V; [2]) of 9.27. The pIC50 (SW620 cells (K-Ras G12V); [4]) was 8.78 and the pIC50 (GppNp-KRAS G12V) was 7.28.
Molecule `C#Cc1c(F)ccc2cc(N)cc(-c3nc4c5c(nc(OC[C@@]67CCCN6C[C@H](F)C7)nc5c3F)N3C(COC)CCOCC3N4C)c12` (some centres unmarked) has a pIC50 (GppNp-KRAS G12D) of 7.00, a pIC50 (GDP-KRAS G12D; [1]) of 8.75 and a pIC50 (GDP-KRAS G12V; [2]) of 8.99. The pIC50 (GppNp-KRAS G12V) was 6.80.
